In the experiment the target is D(2) dopamine receptor (Rattus norvegicus, UniProt P61169).

By UniProt entry, the sequences of proteins in these tests, tags left out.
UniProt P61169, whole entry: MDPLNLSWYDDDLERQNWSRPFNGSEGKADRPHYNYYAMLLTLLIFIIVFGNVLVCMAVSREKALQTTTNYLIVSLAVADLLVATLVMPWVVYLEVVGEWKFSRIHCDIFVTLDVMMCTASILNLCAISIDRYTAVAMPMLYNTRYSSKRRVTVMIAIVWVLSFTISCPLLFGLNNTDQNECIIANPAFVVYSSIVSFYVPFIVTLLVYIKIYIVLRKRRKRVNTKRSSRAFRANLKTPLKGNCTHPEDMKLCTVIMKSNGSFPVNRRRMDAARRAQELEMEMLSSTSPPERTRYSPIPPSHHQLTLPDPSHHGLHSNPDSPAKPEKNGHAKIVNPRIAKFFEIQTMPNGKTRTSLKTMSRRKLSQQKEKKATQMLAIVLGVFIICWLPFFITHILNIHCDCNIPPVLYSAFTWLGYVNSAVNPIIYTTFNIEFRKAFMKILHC

Broadly, the Ki is a measure of affinity in units of concentration, obtained from inhibition or displacement. The low end stands for a stronger hold on the target, the high end for a looser hold on the target. Molecule `CN1CCc2cccc3c2[C@H]1Cc1ccc(O)c(O)c1-3` [APOKYN] had an inhibition constant (Ki) of 15 nM. This lies in the double-digit nanomolar range.

The values are drawn from BindingDB's records for PubMed 1356154 (Dupont Pharmaceuticals, 1992).
